Here are results for 24 compounds from PubChem BioAssay AID651725 (National Center for Advancing Translational Sciences (NCATS), 2012).

The chains behind the UniProt entries cited, without tags or fusion partners.
UniProt Q15475, whole entry: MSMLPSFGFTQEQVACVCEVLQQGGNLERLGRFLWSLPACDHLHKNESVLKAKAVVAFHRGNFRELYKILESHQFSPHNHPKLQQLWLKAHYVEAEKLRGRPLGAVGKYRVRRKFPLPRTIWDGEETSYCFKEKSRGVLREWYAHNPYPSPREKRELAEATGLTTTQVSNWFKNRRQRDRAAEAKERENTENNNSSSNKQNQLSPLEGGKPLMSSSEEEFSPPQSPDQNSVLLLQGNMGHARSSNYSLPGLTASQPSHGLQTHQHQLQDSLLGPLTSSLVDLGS

The entries are a selection whose mix differs from that of the whole data set. Active and inactive are the calls of the source. No stated cut-off is given here; in the data, active means activity change below about -65%; inconclusive means mostly about -30% to -63%; inactive means weaker than that.
On the % scale 0 is the no-effect control and ±100 the full control effect.

The target of this assay is Homeobox protein SIX1 (Homo sapiens) + Protein phosphatase EYA2 (Homo sapiens) (UniProt Q15475+O00167). The assay can be described thus: qHTS Assay for Inhibitors of the Six1/Eya2 Interaction. The settings on record: AlphaScreen GST-Six1/His-Eya2 binding, biochemical; active compounds read low. An excerpt: Its expression is low or undetectable in normal adult breast tissue but the gene is over-expressed in 50% of primary breast tumors and 90% of metastatic lesions. […] Similar to Six1, Eya2 is also not expressed in most normal adult tissues, but is reexpressed in cancers. The Six1-Eya interaction is essential for proliferation during embryonic development, and both Six1 and Eya2 have been independently implicated in the same types of cancer. Because Six1 and Eya2 are embryonic genes with little expression in adult tissues, inhibitors of their expression/activity are likely to have limited side effects. Our goal is to identify inhibitors of the Six1/Eya interaction for potential cancer therapy. To this end, we have developed a homogenous AlphaScreen assay targeting the Six1/Eya interaction. We performed a large scale HTS of the Molecular Libraries Small Molecule Repository (MLSMR) to identify inhibitors of the Six1/Eya interaction as potential anti-cancer therapeutics. Compounds identified can also be used as chemical probes to better understand the biological functions of Six1 and Eya. NIH Chemical Genomics Center [NCGC] NIH Molecular Libraries Probe Centers Network [MLPCN] MLPCN Grant: DA033147 Assay Submitter (PI): Rui Zhao, University of Colorado Denver
The first step of the 5 uL AlphaScreen assay is to dispense assay buffer (50 mM Tris, pH 8.0, 300 mM NaCl, 0.05% BSA, 0.02% Tween 20, 1 mM TCEP) into a Greiner 1536 white solid bottom microtiter plate (789175-F). Five microliters is added to Column 1, 4 uL is added to Column 2 and 3 uL is added to Columns 3 through 48. A 5X protein solution (250 nM GST-Six1 protein + 500 nM His-tagged Eya2 protein) is mixed and 1 uL is dispensed to Columns 3-48. Using a 1536 pintool, 23 nL of compound is transferred to the assay plate. A solution of 5X AlphaScreen beads is mixed (50 ug/mL Glutathione linked donor beads + Nickel chelated acceptor beads) and 1 uL is dispensed to Columns 2-48. The assay plate is incubated for one hour, with a lid, at 37 deg C in the dark. The plate is read using a Perkin Elmer Envision using an AlphaScreen protocol.
With `COc1ccc(Cl)cc1C(=O)NCC1(N2CCOCC2)CCCCC1`, the activity change is inactive: 23.8%. In the case of `O=C(NCC1(N2CCCCC2)CCCCC1)c1ccc(=O)[nH]c1`, the activity change is inactive: 8.13%. Next, `CCCCn1nnnc1C(CC)N1CCC(n2c(=O)[nH]c3ccccc32)CC1` (centres undefined): inactive: -7.06%. Next, `O=C(NCC1(N2CCCCC2)CCCCC1)c1cccs1`: inactive: 12.8%. As for `CCCCn1nnnc1C(c1cccs1)N1CCC(n2c(=O)[nH]c3ccccc32)CC1` (centres undefined), the activity change is inactive: 5.39%. In the case of `COc1ccc(C(=O)NCC2(N3CCCCC3)CCCCC2)cc1`, the activity change was inactive: -4.59%. As to `COc1ccc(C(=O)NCC2(N3CCCCC3)CCCCC2)c(OC)c1OC`, the activity change is inactive: -6.46%.

Take `CC(C)(C)OC(=O)N1CCC(N(C(=O)c2ccccc2)c2ccc(F)cc2)CC1`: the activity change is inactive: 7.17%. For the compound `CCC(c1nnnn1C1CCCC1)N1CCC(n2c(=O)[nH]c3ccccc32)CC1` (centres undefined), the activity change is inactive: -10.2%. Take `CSc1ccccc1C(=O)NCC1(N2CCCCC2)CCCCC1`: the activity change was inactive: -4.73%. Take `Cc1cccc(NC2(C#N)CCN(Cc3ccccc3)CC2)c1`: the activity change is inactive: 2.22%. As for `O=c1[nH]c2ccccc2n1C1CCN(C(c2ccccc2)c2nnnn2C2CCCCC2)CC1` (centres undefined), the figure is inactive: -14.2%; as for `O=c1[nH]c2ccccc2n1C1CCN(C(c2cccc3ccccc23)c2nnnn2C2CCCC2)CC1` (centres undefined), inactive: -12.6%; as for `CCOC(=O)N1CCC(Nc2cccc(C)c2)CC1`, inactive: 3.58%.

For `COc1cc(C(=O)NCC2(N(C)C)CCCCC2)ccc1OC(F)F`, the activity change was inactive: 9.97%. As for `CCOc1ccc(C)cc1CN(CCCl)CCCl`, the figure is inactive: 14.2%; as for `CC(C)(C)n1nnnc1C(c1ccccc1)N1CCC(n2c(=O)[nH]c3ccccc32)CC1` (centres undefined), inactive: -12.7%. Turning to `O=C1CCN(Cc2ccccc2)CC1`, the activity change is inactive: -0.565%. Turning to `CCCCOc1ccc(C(=O)NCC2(N3CCOCC3)CCCCC2)cc1`, the activity change is inactive: 4.66%. Regarding `O=P1(N(CCCl)CCCl)SCCCS1`, the activity change is inactive: 7.22%. For the compound `CCCCn1nnnc1C(c1cc2ccccc2o1)N1CCC(n2c(=O)[nH]c3ccccc32)CC1` (centres undefined), the activity change is inactive: -20.6%. As to `O=C(NCC1(N2CCCCC2)CCCCC1)c1ccc(F)cc1`, the activity change was inactive: 2.61%.

Regarding `CCOC(=O)N1CCC(Nc2ccc(F)cc2)CC1`, the activity change was inactive: 4.61%. Turning to `COc1ccc(NC2CCN(CCc3ccccc3)CC2)c(OC)c1`, the activity change was inactive: -22.4%.
